Assays:
[1] = target: LDL receptor-related protein 1 (LRP1), purified from human placenta (human) (UniProt Q07954); test: SPR equilibrium analysis, LMWuPA complex over immobilised LRP1
[2] = target: LDL receptor-related protein 1 (LRP1), purified from human placenta (human) (UniProt Q07954); test: SPR equilibrium KD relative to LMWuPA:I91L PAI-1
[3] = target: LDL receptor-related protein 1 (LRP1), purified from human placenta (human) (UniProt Q07954); test: SPR kinetics, LRP1 immobilised, Schemes I and II, kd1
[4] = target: LRP1 ligand binding cluster IV (UniProt Q07954); test: SPR kinetics, cluster IV immobilised, Schemes I and II, ka1
[5] = target: LDL receptor-related protein 1 (LRP1), purified from human placenta (human) (UniProt Q07954); test: SPR kinetics, Schemes I and II
[6] = target: LRP1 ligand binding cluster IV (UniProt Q07954); test: SPR kinetics, cluster IV immobilised, Schemes I and II, kd1
[7] = target: LRP1 ligand binding cluster IV (UniProt Q07954); test: SPR kinetics, cluster IV immobilised, second step
[8] = target: LDL receptor-related protein 1 (LRP1), purified from human placenta (human) (UniProt Q07954); test: SPR kinetics, LRP1 immobilised, second step
[9] = target: LDL receptor-related protein 1 (LRP1), purified from human placenta (human) (UniProt Q07954); test: SPR kinetics, LRP1 immobilised, Schemes I and II, ka1
[10] = target: LDL receptor-related protein 1 (LRP1), purified from human placenta (human) (UniProt Q07954); test: SPR equilibrium (Req), LRP1 immobilised

| Substance | Kd [1] [nM] | Fold change [2] [fold] | other results |
| --- | --- | --- | --- |
| LMWuPA complex with PAI-1 mutant K69A (from UniProt P00749 156-431) | 1 | 2 | – |
| LMWuPA complex with PAI-1 mutant K80/207/88A (from UniProt P00749 156-431) | 122 | 244 | – |
| LMWuPA complex with PAI-1 mutant K80/207/122A (from UniProt P00749 156-431) | 25 | 50 | – |
| LMWuPA complex with PAI-1 mutant K80/207/176A (from UniProt P00749 156-431) | 7 | 14 | – |
| LMWuPA complex with PAI-1 mutant K80/207/263A (from UniProt P00749 156-431) | 16 | 32 | – |
| LMWuPA complex with PAI-1 mutant K80/207A (from UniProt P00749 156-431) | 13 | 26 | – |
| LMWuPA complex with PAI-1 mutant K80A (from UniProt P00749 156-431) | 2.9 | 5.8 | – |
| LMWuPA complex with PAI-1 mutant K122A (from UniProt P00749 156-431) | 1 | 2 | – |

Substances with a lower Kd [1], results first:

| Kd [1] [nM] | Fold change [2] [fold] | Substance | other results |
| --- | --- | --- | --- |
| 0.7 | 1.4 | LMWuPA complex with PAI-1 mutant K88A (from UniProt P00749 156-431) | – |
| 0.7 | 1.4 | LMWuPA complex with PAI-1 mutant K176A (from UniProt P00749 156-431) | – |
| 0.8 | 1.6 | LMWuPA complex with PAI-1 mutant K207A (from UniProt P00749 156-431) | – |
| 0.7 | 1.4 | LMWuPA complex with PAI-1 mutant K263A (from UniProt P00749 156-431) | – |
| 0.5 | 1 | LMWuPA:I91L PAI-1 complex (from UniProt P00749 156-431) | koff [3]: 0.018 s⁻¹; kon [4]: 1.3e+06 M⁻¹ s⁻¹; fold affinity against PAI-1 alone [5]: 100 fold; koff [6]: 0.046 s⁻¹; ka2 [7]: 0.14 s⁻¹; kd2 [7]: 0.01 s⁻¹; ka2 [8]: 0.042 s⁻¹; kd2 [8]: 0.0018 s⁻¹; kon [9]: 910000 M⁻¹ s⁻¹; Kd [10]: 0.9 nM |

— US20220372111A1
